In paper PMC5079754 (Biochimica et biophysica acta, 2016):

Assays:
[1] = target: T1, Lmod2s1 (residues 2–41 of Lmod2) (Homo sapiens, UniProt Q6P5Q4); assay: CD thermal unfolding at 222 nm of Tpm1.1 model peptide complexes with Lmod2s1; type: binding; settings: compared with the earlier Kd for αTM1a1-14Zip [32]
T1 sequence (Q6P5Q4 2-41): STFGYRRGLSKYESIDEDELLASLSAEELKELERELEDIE

[2] = target: Tmod1s1 (res. 1–38 of Tmod1); assay: CD thermal unfolding at 222 nm of Tpm1.1 model peptide complexes with Tmod1s1; type: binding, Gallus gallus; settings: read-out: Kd (30°C,µM), Tmod1s1, Kd=exp(−ΔΔG/RT) from CD unfolding of the complex and of the Tpm1.1 peptide alone, 40 µM equimolar, 10 mM sodium phosphate pH 7.0, 100 mM NaCl, duplicates

With CC[C@H](C)[C@H](NC(=O)[C@H](C)NC(=O)[C@H](CC(=O)O)NC(=O)[C@H](CCSC)NC(=O)CN)C(=O)N[C@@H](CCCCN)C(=O)N[C@@H](CCCCN)C(=O)N[C@@H](CCCCN)C(=O)N[C@@H](CCSC)C(=O)N[C@@H](CCC(N)=O)C(=O)N[C@@H](CCSC)C(=O)N[C@@H](CC(C)C)C(=O)N[C@@H](CCCCN)C(=O)N[C@@H](CC(C)C)C(=O)N[C@@H](CC(=O)O)C(=O)N[C@@H](CCCCN)C(=O)N[C@@H](CCC(=O)O)C(=O)N[C@@H](CC(N)=O)C(=O)N[C@@H](C)C(=O)N[C@@H](CC(C)C)C(=O)N[C@@H](CC(=O)O)C(=O)N[C@@H](CCCNC(=N)N)C(=O)N[C@@H](CC(N)=O)C(=O)N[C@@H](Cc1ccc(O)cc1)C(=O)N[C@@H](Cc1c[nH]cn1)C(=O)N[C@@H](CC(C)C)C(=O)N[C@@H](CCC(=O)O)C(=O)N[C@@H](CC(N)=O)C(=O)N[C@@H](CCC(=O)O)C(=O)N[C@H](C(=O)N[C@@H](C)C(=O)N[C@@H](CCCNC(=N)N)C(=O)N[C@@H](CC(C)C)C(=O)N[C@@H](CCCCN)C(=O)N[C@@H](CCCCN)C(=O)N[C@@H](CC(C)C)C(=O)N[C@H](C(=O)NCC(=O)N[C@@H](CCC(=O)O)C(=O)N[C@@H](CCCNC(=N)N)C(=O)O)C(C)C)C(C)C [αTM1a1–21Zip] the “fold increase of affinity of Lmod2s1 versus the Lmod2s1/αTM1a1-14Zip complex” value [1] was “~ two-fold” and the Kd [2] was 1 ± 0.13 µM.
